# Experimental data taken from PubChem BioAssay AID2776 (Johns Hopkins Ion Channel Center, 2010).
# Chains of the proteins cited; added tags and fusions are not shown.
# UniProt Q9QUQ5, whole entry: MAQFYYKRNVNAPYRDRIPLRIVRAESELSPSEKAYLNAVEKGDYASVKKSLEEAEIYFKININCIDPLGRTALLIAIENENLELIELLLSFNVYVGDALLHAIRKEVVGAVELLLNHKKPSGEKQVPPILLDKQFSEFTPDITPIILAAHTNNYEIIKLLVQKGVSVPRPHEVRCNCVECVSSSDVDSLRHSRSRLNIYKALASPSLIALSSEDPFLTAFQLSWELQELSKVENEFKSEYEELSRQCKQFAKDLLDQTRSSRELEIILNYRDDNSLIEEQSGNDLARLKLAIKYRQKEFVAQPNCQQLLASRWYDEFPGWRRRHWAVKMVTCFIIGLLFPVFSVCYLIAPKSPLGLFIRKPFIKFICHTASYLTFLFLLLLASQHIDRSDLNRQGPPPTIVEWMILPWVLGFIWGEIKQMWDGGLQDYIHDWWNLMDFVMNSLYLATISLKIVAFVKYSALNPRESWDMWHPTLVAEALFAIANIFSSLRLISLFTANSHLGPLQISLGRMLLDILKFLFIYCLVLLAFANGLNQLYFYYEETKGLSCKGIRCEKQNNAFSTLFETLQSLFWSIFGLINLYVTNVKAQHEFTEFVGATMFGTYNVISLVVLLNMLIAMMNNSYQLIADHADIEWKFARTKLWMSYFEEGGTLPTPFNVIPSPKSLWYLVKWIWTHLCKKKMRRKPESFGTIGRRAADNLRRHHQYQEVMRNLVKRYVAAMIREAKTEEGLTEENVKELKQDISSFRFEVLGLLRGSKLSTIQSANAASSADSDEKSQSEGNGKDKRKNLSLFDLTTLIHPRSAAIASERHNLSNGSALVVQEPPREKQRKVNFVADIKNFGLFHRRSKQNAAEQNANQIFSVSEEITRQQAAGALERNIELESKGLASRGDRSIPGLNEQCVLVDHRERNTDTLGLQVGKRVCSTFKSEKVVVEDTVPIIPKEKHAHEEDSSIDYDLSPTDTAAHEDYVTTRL
# The list shows a part of the results, in another mix than the full data. Calls of active or inactive are those of the source.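 Rule for the calls: active = compounds whose fluorescence signal differed from control wells by over 3 SD, either direction, in both duplicate plates; inactive = the rest.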
# Molecular target: Short transient receptor potential channel 4 (Mus musculus) (UniProt Q9QUQ5)
# Test: DAMGO-gated TRPC4 membrane potential modulation – cell-based, second specificity screen, HEK293 TRPC4/mu-opioid, selectivity assay for TRPC6 inhibitor project, confirmation (AID 2776)
# Conditions: HEK293 TRPC4/MOR, membrane potential dye fluorescence; at 10 µM; channel activated by saturating DAMGO dose
row,Structure (SMILES),outcome
1,O=C(OCCCN1CCCC1)C(O)(c1ccccc1)C1CCCCC1 (stereo not given),inactive
2,CCN(CC)CCCOC(=O)C(O)(c1ccccc1)C1CCCCC1 (stereo not given),inactive
3,CN(C)CCOC(=O)C(O)(c1ccccc1)C1CCCC1 (stereo not given),inactive
4,CCOC(=O)c1ccc(NP(C)(=O)Oc2ccc(Cl)cc2)cc1 (stereo not given),inactive
5,CN(C)CCOC(=O)C(O)(c1ccccc1)C1CCCCC1 (stereo not given),inactive
